{
  "source": "paper PMC10535824",
  "about": "“Tryptophan Substitution in CJ-15,208 (cyclo[Phe-D-Pro-Phe-Trp]) Introduces δ-Opioid Receptor Antagonism, Preventing Antinociceptive Tolerance and Stress-Induced Reinstatement of Extinguished Cocaine-Conditioned Place Preference” (Pharmaceuticals, 2023)",
  "tested_on": "C57BL/6J mice",
  "test": "conditioned place preference / aversion",
  "details": "two-day place conditioning, i.c.v.; morphine 30 nmol, U50,488 100 nmol, [Nal(2′)^4]CJ-15,208 30 or 100 nmol",
  "data": [
    {"substance": "(±)-trans-3,4-dichloro-N-methyl-N-[2-(1-pyrrolidinyl)cyclohexyl]benzeneacetamide", "values": [
      {"measurement": "conditioned place preference or aversion", "result": "significant (p = 0.03) conditioned place avoidance"}
    ]}
  ]
}
